One assay concerns the target T1, delta opioid receptor (Homo sapiens, UniProt P41143).
T1 construct: expressed in transfected cells; membranes prepared
In words: [35S]GTPγS binding, CHO cell membranes. The class given is biochemical. The settings on record: mean ± SEM.

Protein sequences, listed by entry. Tags and fused reporters are not part of them.
UniProt P41143, whole entry: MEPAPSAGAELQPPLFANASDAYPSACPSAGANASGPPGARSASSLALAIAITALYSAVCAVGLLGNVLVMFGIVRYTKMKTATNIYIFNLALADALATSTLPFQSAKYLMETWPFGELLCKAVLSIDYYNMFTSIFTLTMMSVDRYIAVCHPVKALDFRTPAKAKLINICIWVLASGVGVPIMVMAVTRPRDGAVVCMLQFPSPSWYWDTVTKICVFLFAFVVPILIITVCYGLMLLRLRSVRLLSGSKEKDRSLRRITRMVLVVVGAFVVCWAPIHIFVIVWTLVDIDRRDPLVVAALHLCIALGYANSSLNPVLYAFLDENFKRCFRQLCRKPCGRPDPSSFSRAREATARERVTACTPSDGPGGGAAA
UniProt P35372, whole entry: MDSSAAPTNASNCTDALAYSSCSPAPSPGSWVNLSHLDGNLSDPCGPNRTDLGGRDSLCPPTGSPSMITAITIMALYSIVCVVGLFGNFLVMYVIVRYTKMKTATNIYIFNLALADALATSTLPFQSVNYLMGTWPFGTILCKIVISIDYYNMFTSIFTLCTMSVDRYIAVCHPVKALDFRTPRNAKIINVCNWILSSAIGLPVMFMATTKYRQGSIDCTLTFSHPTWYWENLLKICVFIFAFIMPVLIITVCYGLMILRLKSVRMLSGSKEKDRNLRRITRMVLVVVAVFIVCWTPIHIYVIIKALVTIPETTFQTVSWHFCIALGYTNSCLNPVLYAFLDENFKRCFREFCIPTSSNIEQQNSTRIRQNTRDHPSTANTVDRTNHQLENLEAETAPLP

The next assay has as its target T2, mu opioid receptor (Homo sapiens, UniProt P35372).
T2 construct: expressed in transfected cells; membranes prepared
It is filed as biochemical.

Structures are written as SMILES.

Usually EC50 stands for the concentration needed to bring the measured effect to its halfway point. In the case of `C[C@@H](NC(=O)[C@@H](N)Cc1ccc(O)cc1)C(=O)NCC(=O)N(C)[C@@H](Cc1ccccc1)C(=O)NCCO` [DAMGO, [D-Ala2, N-MePhe4, Gly-ol]-enkephalin, reference compound], at delta opioid receptor, the EC50 was greater than 10 µM. Consider `CC(C1CC1)N1CCC23CCCCC2C1Cc1ccc(O)cc13` (stereo not drawn) [PPL-103, α-methyl-cyclopropylmethyl-morphinan], for which, on mu opioid receptor, the “Mu % Stim.” value is 22.6 ± 0.05%.
